Measurements from patent publication US12240815B2, “Potent and selective human neuronal nitric oxide synthase inhibitors” (Northwestern University, priority 2020, dated 2025).
Read-outs that look alike come from different tables or passages of the source.

Key:
[1] = 17 h, 200 μM, pH 7.5
PAMPA-BBB assay = conditions: Table 1; 200 μM, PBS pH 7.5, 25° C., 17 h; average of triplicate ± SD

Pe, effective permeability in PAMPA-BBB assay [1]	Pe, effective permeability in PAMPA-BBB assay (PAMPA-BBB assay)	Structure (SMILES)
18.8 10^−6 cm · s^−1	–	Cc1cc(N)nc(CCc2cc(F)cc(C#CCN(C)C)c2)c1 [Compound 3, 6-(3-(3-(dimethylamino)prop-1-yn-1-yl)-5-fluorophenethyl)-4-methylpyridin-2-amine]
ca. 18 10^−6 cm · s^−1	–	CNCC#Cc1cc(F)c(F)c(CCc2cc(C)cc(N)n2)c1 [Compound 15, 6-(2,3-difluoro-5-(3-(methylamino)prop-1-yn-1-yl)phenethyl)-4-methylpyridin-2-amine]
–	ca. 18 10^−6 cm · s^−1	Cc1cc(N)nc(CCc2cc(C#CCN(C)C)cc(F)c2F)c1 [Compound 16, 6-(5-(3-(dimethylamino)prop-1-yn-1-yl)-2,3-difluorophenethyl)-4-methylpyridin-2-amine]
–	17.7 10^−6 cm · s^−1	CCO[C@@H]1C[C@H](CCc2cc(F)c(F)c(CCc3cc(C)cc(N)n3)c2)N(C)C1 [Compound 20, 6-(5-(2-((2S,4R)-4-ethoxy-1-methylpyrrolidin-2-yl)ethyl)-2,3-difluorophenethyl)-4-methylpyridin-2-amine]
